Experimental findings from publication PMC4281354, “The opioid receptor pharmacology of GSK1521498 compared to other ligands with differential effects on compulsive reward-related behaviours” (Psychopharmacology, 2014) are described below.

The chains behind the UniProt entries cited, without tags or fusion partners.
UniProt P35372, whole entry: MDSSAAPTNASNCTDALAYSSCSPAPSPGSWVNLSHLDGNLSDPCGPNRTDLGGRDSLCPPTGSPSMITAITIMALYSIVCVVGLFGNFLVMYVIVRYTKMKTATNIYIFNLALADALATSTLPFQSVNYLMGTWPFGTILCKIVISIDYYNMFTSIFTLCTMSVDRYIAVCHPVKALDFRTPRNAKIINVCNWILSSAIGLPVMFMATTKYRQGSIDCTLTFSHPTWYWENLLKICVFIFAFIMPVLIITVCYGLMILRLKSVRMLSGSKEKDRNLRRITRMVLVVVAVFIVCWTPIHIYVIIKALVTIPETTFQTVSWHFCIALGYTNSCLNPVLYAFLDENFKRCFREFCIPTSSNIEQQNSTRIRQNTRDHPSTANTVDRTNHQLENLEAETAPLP

The test has as its target MOPr (Homo sapiens, UniProt P35372). The experiment in a line: Basal [35S]GTPγS binding, membranes from CHO cells expressing a low level of MOPr. In kind it is biochemical. In general terms: GTPγS is a poorly hydrolysed GTP analogue; its binding reports G protein activation.

As to DAMGO, the “stimulation of [35S]GTPγS binding” value is recorded as “over 50%”.
